# Laboratory results: PubChem BioAssay AID652136 (The Scripps Research Institute Molecular Screening Center, 2013)
# Only a part is listed here, and it is no random draw. Activity calls are given as the source filed them.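 The calls were made as follows: active = inhibition above the mean of all tested compounds plus 3 SD (cut at about 3% in these data); inactive = the rest.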
# Experiment: SF-1 AF-2 mutant transactivation artefacts – cell-based, luminescence, counter-screen for DAX1 inhibitor project (AID 652136);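 also: 0% = DAX-1 transfected cells with DMSO and 100% = cells without DAX-1 with DMSO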
# Details: HEK293 StAR-luciferase, SF-1 AF2 mutant, at 6.8 µM, hits give high values
row,SMILES,inhibition
1,CN(C)c1ccc(C(=O)NCC2(N3CCCCC3)CCCCC2)cc1,active: 5.09%
2,O=C(NCC1(N2CCCCC2)CCCCC1)c1ccc(=O)[nH]c1,active: 5.79%
3,O=C(NCC1(N2CCCCC2)CCCCC1)c1ccc(Cl)nc1,active: 3.81%
4,CSc1ccc(C(=O)NCC2(N3CCOCC3)CCCCC2)cc1,inactive: 2.04%
